Protein sequences, listed by entry. Tags and fused reporters are not part of them.
UniProt P0DMS8, whole entry: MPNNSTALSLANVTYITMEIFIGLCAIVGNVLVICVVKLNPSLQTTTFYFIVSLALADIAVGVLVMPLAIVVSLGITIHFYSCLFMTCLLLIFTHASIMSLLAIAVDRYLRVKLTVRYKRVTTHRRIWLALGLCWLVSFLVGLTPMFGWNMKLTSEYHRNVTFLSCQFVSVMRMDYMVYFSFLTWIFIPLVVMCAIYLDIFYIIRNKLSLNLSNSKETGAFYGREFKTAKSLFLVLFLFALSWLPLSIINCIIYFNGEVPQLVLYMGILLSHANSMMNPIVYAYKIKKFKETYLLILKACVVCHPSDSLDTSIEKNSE

According to patent US20070037179A1, “Methods of diagnosing and prognosticating solid tumors and melanoma” (priority 2004, published 2007):

What was measured:
A3 adenosine receptors [1] = target: T1, A3 adenosine receptors (Homo sapiens, UniProt P0DMS8); assay: [3H]MRE 3008F20 saturation binding to colonic membranes; design: Colon cancer tissues and related mucosa were homogenized in PBS buffer with a Polytron (Kinematica) and centrifuged; from tissue; host or cells: surgical specimens of human colorectal carcinoma, adenoma and adjacent/remote normal colonic mucosa
Protocol: PREPARATION OF COLONIC MEMBRANE SUSPENSIONS. Colon cancer tissues and related mucosa were homogenized in PBS buffer with a Polytron (Kinematica) and centrifuged for 15 min at 48,000 g. The membrane pellet was resuspended in 50 mM Tris/HCl buffer pH 7.4 (50 mM Tris/HCl, 10 mM MgCl2, 1 mM EDTA) and incubated with 3 IU/ml of adenosine deaminase for 30 min at 37° C. This suspension was used for binding experiments.
(§1) Non-specific binding was determined in the presence of 1 μM MRE 3008F20. Bound and free radioactivity were separated, after an incubation time of 120 min at 4° C., by filtering the assay mixture using a Brandel cell harvester. The protein concentration was determined according to a Bio Rad method (26). Binding to A1 and A2A adenosine receptors was performed using [^3H]1,3-dipropyl-8-cyclopentyl-xanthine ([^3H]DPCPX) and [^3H]4-(2-[7-amino-2-(2-furyl)-[1,2,4]triazolo-[2,32][1,3,6]triazinyl-amino]ethyl)-phenol ([^3H]ZM 241385), respectively, as previously described (16, 24).
(§2) Data and statistical analysis. A weighted nonlinear least squares curve fitting program, LIGAND was used for computer analysis of the data from saturation experiments (28). Significant differences between control and patients with colorectal cancer were assessed using Student's t-test or analysis of variance (ANOVA) and the Dunnett's test when required. P<0.05 was considered significant. All data are reported as means±SEM.

A3 adenosine receptors [2] = target: T1, A3 adenosine receptors; assay: [3H]MRE 3008F20 saturation binding to membranes of peripheral blood lymphocytes and neutrophils; design: endogenous in cells; host or cells: neutrophils and lymphocytes from peripheral venous blood of colorectal cancer patients and healthy volunteers; settings: N=3
Protocol: as §1, §2

CCCn1cc2c(nc(NC(=O)Nc3ccc(OC)cc3)n3nc(-c4ccco4)nc23)n1 [[^3H]MRE 3008F20, 5-N-(4-methoxyphenyl-carbamoyl)amino-8-propyl-2(2furyl)-pyrazolo-[4,3 e]-1,2,4-triazolo [1,5-c]pyrimidine]
Kd (A3 adenosine receptors [1]; adjacent normal (AN) mucosa, 2 cm from tumor): 4.56 ± 0.21 nM
Kd (A3 adenosine receptors [1]; colonic membranes from 14 patients operated for non-neoplastic large bowel disease): 2.93 ± 0.19 nM
Kd (A3 adenosine receptors [1]; large adenomas with high-grade dysplasia, N=4): 6.3 ± 0.8 nM
Kd (A3 adenosine receptors [1]; remote normal (RN) mucosa, 10 cm from tumor): 3.01 ± 0.13 nM
Kd (A3 adenosine receptors [1]; small adenomas with low-grade dysplasia, N=4): 2.99 ± 0.5 nM
Kd (A3 adenosine receptors [1]; tumor tissues, 73 primary colorectal carcinomas, mean±SEM): 8.73 ± 0.37 nM
Kd (A3 adenosine receptors [2]; lymphocytes of patients with small adenomas): 2.46 ± 0.52 nM
Kd (A3 adenosine receptors [2]; neutrophils of patients with small adenomas): 2.67 ± 0.29 nM
